scFv variants of Ab-14 (light chain) against a SARS-CoV-2 spike peptide

Binding partner: SARS-CoV-2 spike HR2 peptide, sequence PDVDLGDISGINAS.

The variants keep the heavy chain, the linker and the frameworks of Ab-14 (scFv order VH, three GGGGS repeats, VL).
VH: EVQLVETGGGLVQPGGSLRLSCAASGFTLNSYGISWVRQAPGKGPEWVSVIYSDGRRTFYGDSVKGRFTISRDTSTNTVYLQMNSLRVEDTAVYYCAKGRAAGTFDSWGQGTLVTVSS
VL: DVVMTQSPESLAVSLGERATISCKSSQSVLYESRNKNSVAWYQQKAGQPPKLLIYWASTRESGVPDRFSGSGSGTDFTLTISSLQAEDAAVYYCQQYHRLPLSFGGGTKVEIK

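The parent was found by panning a naive human phage display library on the peptide. This is the validation round: designs drawn from the data on random variants, tested in the same kind of assay. Their group label is 14L_En_Gibbs (En: ensemble of fine-tuned language models; Gibbs: Gibbs sampling). The scFvs were displayed on barcoded MATa yeast, the peptide on MATalpha yeast. Binding brings cells together so that they mate, and sequencing counts the barcode pairs among the diploids. Scores were corrected for input abundance and mapped to Kd with protein pairs of known affinity run in the same pool. The assay was run in six technical replicates.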

Each variant is given by its three light chain CDRs, as the data file delimits them; those of the parent are KSSQSVLYESRNKNSVA, WASTRES, QQYHRLPLS. Numbers give log10(Kd / nM), so 0 is 1 nM and 3 is 1 µM. Smaller is tighter. A mean of the replicates is given; it leaves out those without a signal. Where no diploid with the target was found in that replicate, the entry reads "nd": below detection, most likely a poor binder, though not proof of it. A sequence measured in both rounds can read differently, since the two assays cover different ranges. Nonspecific signal, from three strains lacking the peptide, appeared in 4% of pairings of all light chain designs, centred on 2.64 (5% of these signals below 1.59); values are not corrected for it. Also given: how often the same scFv was detected with the empty control strains. The authors averaged sequences with at least three values out of six and counted those with two or fewer as poor binders.

For VLAMESYQKYRHENNIA, GANMRAQ, QQYNRLPFQ, the assay gave 0.31, 0.15, -0.21, -0.02, 0.23, 0.22 (mean 0.11; controls 1 of 18).
For KIGHQMVGNWKTDNNIA, QGDTRGS, QSYDRLPLS, the assay gave nd, 0.81, 1.03, 0.88, 2.77, 1.50 (mean 1.40; controls 0 of 18).
For QLTWRAFNGDSVMNNVA, DRVHAQY, QQYSRLPFT, the assay gave 1.03, 0.73, 0.77, 0.65, 0.67, 0.49 (mean 0.72; controls 1 of 18).
For KLVGDMQEDKNPSENIA, EESSVEQ, QQYSRLPLE, the assay gave 2.07, nd, nd, nd, nd, nd (controls 0 of 18).
For NVDISENVNYNHKAAVA, GHDERVG, QQYSRLPLA, the assay gave 0.50, 0.24, 0.09, 0.00, 0.09, 0.20 (mean 0.19; controls 1 of 18).
For KIRWQQYSQSEMEANIA, QESTRHQ, QQYFRLPLS, the assay gave 0.68, 0.49, 1.27, 1.12, 1.07, 1.29 (mean 0.99; controls 0 of 18).
For NLVGRVEDNQTENNAIA, DMHCRAG, QQYSRLPLS, the assay gave 2.67, 1.62, 2.18, 1.19, 1.69, 1.77 (mean 1.85; controls 1 of 18).
For HMMSGSVEQWNIQNAVA, EMSEVYR, QQYVSLPLS, the assay gave nd, nd, nd, nd, nd, nd (controls 0 of 18).
For NVRDSLGYEQNVGSAVA, EASQVED, QQYYTLPLT, the assay gave 1.62, 1.80, 1.28, 1.20, 1.99, 1.41 (mean 1.55; controls 0 of 18).
For RLTEHYSEKKAADASVA, DASTRND, QQYHRLPLF, the assay gave -0.03, -0.17, -0.12, -0.28, -0.20, 0.04 (mean -0.13; controls 0 of 18).
For HFSVETMEFMGQNKNIA, EVTTTML, QQYARLPFM, the assay gave 1.52, 2.07, 1.82, 1.40, 2.34, 1.83 (mean 1.83; controls 0 of 18).
For SLDHDVGLHTHDQKSIA, GETRVDR, QQYAHLPLS, the assay gave 1.05, 1.12, 1.23, 0.59, 0.71, 0.97 (mean 0.95; controls 2 of 18).
For KVKNMMNQMGTQHQNIA, DGAIKCD, QQYQRLPLW, the assay gave 0.16, 0.23, 0.02, 0.01, 0.47, 0.41 (mean 0.22; controls 0 of 18).
For NLSIQHQHQNMDANAVA, QTEIREV, QQYAQLPLA, the assay gave 0.47, 0.33, 0.21, 0.16, 0.11, 0.35 (mean 0.27; controls 0 of 18).
For SLVQEKSVGDYNAGNIA, AGNQLSV, QQYNRLPLS, the assay gave 0.04, -0.37, -0.01, -0.48, 0.30, 0.46 (mean -0.01; controls 0 of 18).
For QLEFERGDAYKQGNAIA, GGTESLH, QQYAMLPLS, the assay gave 0.19, -0.09, 0.25, -0.05, -0.09, 0.45 (mean 0.11; controls 2 of 18).
For KITLIFSNKGNSRHSVA, NAETLAH, QQYYRLPLM, the assay gave 1.68, 2.82, 2.35, 1.86, 1.73, 1.56 (mean 2.00; controls 1 of 18).
For QLTQVQQEDTIGEYNVA, HAEVSGR, QQYSQLPLI, the assay gave nd, nd, nd, nd, nd, nd (controls 1 of 18).
For KVDMYELPMEFNRSHVA, QAEVRAP, QQYWRLPLE, the assay gave 0.20, 1.20, 0.01, -0.17, 0.79, 0.64 (mean 0.44; controls 1 of 18).
For NMTGTKEMQSNNINNIA, EMNERFA, QQYFQLPLS, the assay gave nd, 2.42, 3.26, 2.24, 2.24, nd (mean 2.54; controls 0 of 18).
For KFSQWTFSQNRDDNSIA, HADEVVR, QQYDRFPLT, the assay gave 1.67, nd, 1.27, 1.45, 1.01, nd (mean 1.35; controls 0 of 18).
For SVTRYTDENGLKMSSVA, GAGNRMT, QQYHRLPLT, the assay gave 0.34, 0.11, 0.87, 0.39, 0.42, 0.34 (mean 0.41; controls 1 of 18).
For QLFFNDFQYDIESQNIA, HASLRYV, QQYARLPLV, the assay gave 1.73, 0.92, 1.52, 1.01, 1.09, 0.93 (mean 1.20; controls 0 of 18).
For KLQGFSNNMNDIQNSIA, DESMLHT, QHYWRLPLT, the assay gave 1.41, 4.40, nd, 2.44, nd, 1.67 (mean 2.48; controls 0 of 18).
For KIEWFSQDNRLTISAIA, EASTIYQ, QQYGHLPLS, the assay gave 1.08, 1.80, nd, 0.60, nd, 1.57 (mean 1.26; controls 1 of 18).
For HLMPLNLHYTETLNSVA, EAEERQE, QHYARLPLM, the assay gave 1.18, 0.93, 1.14, 0.59, 1.30, 1.75 (mean 1.15; controls 1 of 18).
For SMMFDTSDNYHERNNVA, DGAAIMA, QQYSILPLS, the assay gave 1.42, 0.95, 1.54, 1.17, 1.57, 0.89 (mean 1.26; controls 1 of 18).
For SMSNLQMVPSVWKNSIA, DSEHVEE, QQYSRLPLT, the assay gave 0.63, 0.50, 0.16, 0.45, 0.46, 0.44 (mean 0.44; controls 1 of 18).
For QMTHPSASWQANQASIA, DASLSLQ, QQYAQLPLM, the assay gave 0.68, 1.08, 0.76, 0.45, 0.91, 1.28 (mean 0.86; controls 1 of 18).
For KVQLGLERGNQAYSAVA, GVTEKGD, QQYFQLPLG, the assay gave 1.10, 1.15, 0.97, 1.15, 1.14, 1.14 (mean 1.11; controls 0 of 18).
For SLSESEREEFSVEQNIA, DGTEHMR, QQYFQLPLL, the assay gave 1.12, 1.27, 0.71, 1.07, 1.68, 0.75 (mean 1.10; controls 0 of 18).
For HLNLEYMQMMKDHNSIA, DTEHKTQ, QQYFRLPIS, the assay gave -0.05, -0.14, -0.26, -0.25, -0.26, 0.27 (mean -0.12; controls 1 of 18).
For KLFDRTMGEIVNQRAVA, EDNVRSV, QQYSQLPLT, the assay gave 0.95, 1.05, 0.76, 0.76, 0.68, 0.60 (mean 0.80; controls 2 of 18).
For HLSKPWQLGHPSTNAVA, NMDVTMT, QQYSRLPLS, the assay gave 0.24, 0.55, 0.28, 0.28, 0.17, 0.38 (mean 0.32; controls 1 of 18).
For QMKASLSQGIYRQDSVA, SDDIRVL, QQYHHLPLS, the assay gave 1.70, 2.37, 1.87, 1.72, 1.57, 2.26 (mean 1.91; controls 0 of 18).
For KFANQLVYWNQGQNAIA, DVTNKSA, QQYLRLPLM, the assay gave 0.58, 0.52, 0.47, 0.45, 0.32, 0.71 (mean 0.51; controls 2 of 18).
For RLTEHESEKKAADASVA, DANTRGD, QQYHRLPLF, the assay gave 0.54, 0.60, 0.55, 0.40, 0.39, 0.56 (mean 0.51; controls 1 of 18).
For KIMHQHVGNWKTANNIA, QGDQRCQ, QSYDRLPLS, the assay gave 0.91, 0.61, 0.70, 0.66, 0.86, 0.67 (mean 0.73; controls 2 of 18).
For KIFYRQEEDIRHESSIA, NGMARVK, QQYYMLPLS, the assay gave 1.07, 0.70, 0.46, 0.21, 0.84, 0.75 (mean 0.67; controls 0 of 18).
For KLSWDDMSHFNTRSAIA, DMTMRAW, QQYNRLPLD, the assay gave 1.65, 0.90, 1.41, 1.75, 1.51, 1.24 (mean 1.41; controls 1 of 18).
For MVSMMPNEGTRYWEAVA, DHSQRNT, QQYDQLPLS, the assay gave nd, 1.43, 1.89, nd, 2.62, nd (mean 1.98; controls 0 of 18).
For KLSKFTQNWGLNRNHIA, EESTKIM, QQYFSLPLY, the assay gave 2.44, 2.31, 2.13, 3.58, 1.97, 3.49 (mean 2.65; controls 2 of 18).
For SLTIYQDENGLKHQSIA, GAGLRML, QQYHRLPLT, the assay gave 0.95, 1.17, 0.37, 0.48, 0.55, 0.31 (mean 0.64; controls 0 of 18).
For SLHHYFLGENGMRGSVA, NATIRDQ, QQYFRLPLF, the assay gave 0.49, -0.06, 0.54, -0.31, 0.39, 0.04 (mean 0.18; controls 0 of 18).
For ALRGVGYTEQVKHSAIA, DGEHLNN, QQYSMLPLS, the assay gave nd, 0.62, 0.41, nd, 1.55, nd (mean 0.86; controls 0 of 18).

For reference, 4 entries of the list once more:

QLFFNDFQYDIESQNIA, HASLRYV, QQYARLPLV: 1.73, 0.92, 1.52, 1.01, 1.09, 0.93 (mean 1.20; controls 0 of 18).
QLTQVQQEDTIGEYNVA, HAEVSGR, QQYSQLPLI: nd, nd, nd, nd, nd, nd (controls 1 of 18).
QMTHPSASWQANQASIA, DASLSLQ, QQYAQLPLM: 0.68, 1.08, 0.76, 0.45, 0.91, 1.28 (mean 0.86; controls 1 of 18).
KLVGDMQEDKNPSENIA, EESSVEQ, QQYSRLPLE: 2.07, nd, nd, nd, nd, nd (controls 0 of 18).

Source: Li et al. 2023 (doi:10.1038/s41467-023-39022-2), MIT Lincoln Laboratory and A-Alpha Bio; data file from the FLAb repository.